Reference: US10149839B2, “Chemical compounds” (AstraZeneca AB, priority 2016, dated 2018)

By UniProt entry, the sequences of proteins in these tests, tags left out.
UniProt P03372, whole entry: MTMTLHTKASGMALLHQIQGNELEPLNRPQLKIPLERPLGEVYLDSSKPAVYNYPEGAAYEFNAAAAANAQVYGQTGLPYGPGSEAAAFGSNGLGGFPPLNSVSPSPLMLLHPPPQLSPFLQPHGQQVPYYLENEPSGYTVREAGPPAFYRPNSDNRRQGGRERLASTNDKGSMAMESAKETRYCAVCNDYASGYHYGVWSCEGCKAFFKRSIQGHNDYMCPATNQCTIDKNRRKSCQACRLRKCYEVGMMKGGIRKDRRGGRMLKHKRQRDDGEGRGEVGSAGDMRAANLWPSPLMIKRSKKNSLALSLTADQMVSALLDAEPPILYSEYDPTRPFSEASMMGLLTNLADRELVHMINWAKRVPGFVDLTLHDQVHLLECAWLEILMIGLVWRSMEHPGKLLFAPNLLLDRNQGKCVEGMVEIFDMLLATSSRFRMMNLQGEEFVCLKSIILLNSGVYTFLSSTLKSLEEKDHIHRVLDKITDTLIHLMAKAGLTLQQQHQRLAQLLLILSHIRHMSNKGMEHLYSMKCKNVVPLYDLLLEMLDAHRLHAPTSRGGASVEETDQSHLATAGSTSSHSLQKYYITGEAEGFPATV

Tests used:
Type in all cases: cell-based
[1] = biological target: estrogen receptor (ERα) in CAMA-1 cells (Homo sapiens (Human), UniProt P03372); test: Western blotting assay, CAMA-1 cells; settings: compound 100 nM, 48 h, normalised to 100 nM fulvestrant (100%)
[2] = biological target: T1, Estrogen Receptor (ERα) in MCF-7 cells (Homo sapiens (Human), UniProt P03372); test: Western blotting assay, MCF-7 cells; settings: compound 100 nM, 48 h, normalised to 100 nM fulvestrant (100%)
[3] = biological target: T1, Estrogen Receptor (ERα) in MCF-7 cells; test: MCF-7 ER down-regulation assay (immuno-fluorescence); settings: for IC50: 18-22 hours incubation; for % downregulation: shown in brackets where not >90%

| Structure (SMILES) | CAMA1 Western % ER deg vs Fv [1] [%] | MCF7 Western % ER deg vs Fv [2] [%] | IC50 [3] [nM] | % downregulation [3] |
| --- | --- | --- | --- | --- |
| COc1cc(OCCNCCCF)ccc1[C@@H]1c2[nH]c3ccccc3c2C[C@@H](C)N1CC(F)(F)CO [Example 58, 2,2-difluoro-3-((1R,3R)-1-(4-(2-((3-fluoropropyl)amino)ethoxy)-2-methoxyphenyl)-3-methyl-1,3,4,9-tetrahydro-2H-pyrido[3,4-b]indol-2-yl)propan-1-ol] | 58 | 86 | 0.087 | – |
| COc1cc(OCCNCCCF)ccc1[C@@H]1c2[nH]c3ccccc3c2C[C@@H](C)N1CC1(F)COC1 [Example 8, 3-fluoro-N-(2-(4-((1R,3R)-2-((3-fluorooxetan-3-yl)methyl)-3-methyl-2,3,4,9-tetrahydro-1H-pyrido[3,4-b]indol-1-yl)-3-methoxyphenoxy)ethyl)propan-1-amine] | – | – | 0.16 | – |
| COc1cc(NCCNCCCF)ncc1[C@@H]1c2[nH]c3ccccc3c2C[C@@H](C)N1CC(F)(F)CO [Example 65, 2,2-difluoro-3-((1R,3R)-1-(6-((2-((3-fluoropropyl)amino)ethyl)amino)-4-methoxypyridin-3-yl)-3-methyl-1,3,4,9-tetrahydro-2H-pyrido[3,4-b]indol-2-yl)propan-1-ol] | – | – | 0.63 | (87%) |
| C[C@@H]1Cc2c([nH]c3ccccc23)[C@@H](c2ccc(OCCNCCCF)cc2)N1CC1(F)CC1 [Example 23, 3-fluoro-N-(2-(4-((1R,3R)-2-((1-fluorocyclopropyl)methyl)-3-methyl-2,3,4,9-tetrahydro-1H-pyrido[3,4-b]indol-1-yl)phenoxy)ethyl)propan-1-amine] | – | – | – | (89%) |
| COc1cc(OCCNCCCF)ccc1[C@@H]1c2[nH]c3ccccc3c2C[C@@H](C)N1CC(F)F [Example 43, N-(2-(4-((1R,3R)-2-(2,2-Difluoroethyl)-3-methyl-2,3,4,9-tetrahydro-1H-pyrido[3,4-b]indol-1-yl)-3-methoxyphenoxy)ethyl)-3-fluoropropan-1-amine] | – | 88 | – | – |
